Among the data in PubChem BioAssay (Tox21) are Potency, activation and caspase-3/7 activation values, retold here.

The chains behind the UniProt entries cited, without tags or fusion partners. Where a name states a change or a piece, a line headed by the entry shows the natural chain unless it says otherwise.
UniProt P34981: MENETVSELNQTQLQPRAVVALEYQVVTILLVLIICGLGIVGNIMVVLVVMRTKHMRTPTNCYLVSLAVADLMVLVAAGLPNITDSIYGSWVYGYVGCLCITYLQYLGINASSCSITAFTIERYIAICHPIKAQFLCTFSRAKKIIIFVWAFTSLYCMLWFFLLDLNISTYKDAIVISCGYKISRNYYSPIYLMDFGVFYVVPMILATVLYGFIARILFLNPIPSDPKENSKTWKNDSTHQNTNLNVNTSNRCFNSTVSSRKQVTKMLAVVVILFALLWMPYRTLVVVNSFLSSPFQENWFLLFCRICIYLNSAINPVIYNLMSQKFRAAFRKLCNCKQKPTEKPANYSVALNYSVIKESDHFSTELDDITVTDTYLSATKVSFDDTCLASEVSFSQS
UniProt O75469: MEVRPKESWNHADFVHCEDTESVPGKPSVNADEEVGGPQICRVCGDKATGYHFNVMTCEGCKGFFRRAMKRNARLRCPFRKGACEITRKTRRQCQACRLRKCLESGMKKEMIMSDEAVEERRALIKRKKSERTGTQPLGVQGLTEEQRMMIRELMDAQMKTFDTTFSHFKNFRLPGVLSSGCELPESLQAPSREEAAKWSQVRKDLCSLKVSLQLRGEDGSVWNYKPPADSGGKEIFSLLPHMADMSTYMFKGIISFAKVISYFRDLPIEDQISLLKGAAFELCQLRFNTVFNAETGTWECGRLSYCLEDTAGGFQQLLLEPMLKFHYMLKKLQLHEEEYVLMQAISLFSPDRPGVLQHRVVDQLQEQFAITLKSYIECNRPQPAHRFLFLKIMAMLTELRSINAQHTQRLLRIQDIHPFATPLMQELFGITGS
UniProt P06401: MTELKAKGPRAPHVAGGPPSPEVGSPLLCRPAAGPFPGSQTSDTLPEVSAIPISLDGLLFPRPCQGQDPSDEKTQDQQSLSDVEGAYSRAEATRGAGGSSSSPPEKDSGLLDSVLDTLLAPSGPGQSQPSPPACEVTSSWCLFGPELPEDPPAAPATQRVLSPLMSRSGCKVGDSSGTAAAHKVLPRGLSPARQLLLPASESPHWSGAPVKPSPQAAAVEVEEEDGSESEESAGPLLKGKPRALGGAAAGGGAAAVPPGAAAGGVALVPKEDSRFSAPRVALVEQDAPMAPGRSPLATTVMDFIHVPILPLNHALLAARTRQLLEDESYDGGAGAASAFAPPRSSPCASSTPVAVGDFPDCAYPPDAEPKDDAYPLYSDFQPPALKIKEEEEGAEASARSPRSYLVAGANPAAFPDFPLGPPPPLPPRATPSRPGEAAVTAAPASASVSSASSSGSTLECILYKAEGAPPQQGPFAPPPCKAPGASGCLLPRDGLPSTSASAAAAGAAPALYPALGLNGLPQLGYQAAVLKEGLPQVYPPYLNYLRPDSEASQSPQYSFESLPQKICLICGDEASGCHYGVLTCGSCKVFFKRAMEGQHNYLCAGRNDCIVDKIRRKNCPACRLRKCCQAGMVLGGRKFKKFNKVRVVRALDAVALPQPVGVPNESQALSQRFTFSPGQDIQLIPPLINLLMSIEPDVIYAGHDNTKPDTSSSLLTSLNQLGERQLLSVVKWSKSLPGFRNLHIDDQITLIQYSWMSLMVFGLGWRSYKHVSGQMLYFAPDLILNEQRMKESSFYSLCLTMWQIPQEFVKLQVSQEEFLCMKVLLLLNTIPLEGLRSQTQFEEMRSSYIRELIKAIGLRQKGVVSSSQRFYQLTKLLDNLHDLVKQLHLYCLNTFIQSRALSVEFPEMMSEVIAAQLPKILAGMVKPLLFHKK
UniProt P22303: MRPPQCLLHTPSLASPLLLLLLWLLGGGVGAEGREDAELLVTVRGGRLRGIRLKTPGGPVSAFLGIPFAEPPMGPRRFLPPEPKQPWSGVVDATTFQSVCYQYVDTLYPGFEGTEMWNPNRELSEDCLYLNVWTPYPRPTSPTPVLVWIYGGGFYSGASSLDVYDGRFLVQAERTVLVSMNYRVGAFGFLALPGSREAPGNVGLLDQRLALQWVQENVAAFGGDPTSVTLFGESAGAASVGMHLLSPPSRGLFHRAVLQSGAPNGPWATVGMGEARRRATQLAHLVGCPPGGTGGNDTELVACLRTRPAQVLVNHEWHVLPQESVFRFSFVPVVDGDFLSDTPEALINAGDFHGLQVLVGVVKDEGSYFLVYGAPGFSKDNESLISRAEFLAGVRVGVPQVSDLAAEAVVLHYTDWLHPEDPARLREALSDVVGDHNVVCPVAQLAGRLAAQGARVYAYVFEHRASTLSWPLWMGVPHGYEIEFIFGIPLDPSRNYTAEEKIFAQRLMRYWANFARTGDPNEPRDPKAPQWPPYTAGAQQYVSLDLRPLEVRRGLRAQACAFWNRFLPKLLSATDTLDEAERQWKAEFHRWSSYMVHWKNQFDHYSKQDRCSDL
UniProt P33261, whole entry, looked up: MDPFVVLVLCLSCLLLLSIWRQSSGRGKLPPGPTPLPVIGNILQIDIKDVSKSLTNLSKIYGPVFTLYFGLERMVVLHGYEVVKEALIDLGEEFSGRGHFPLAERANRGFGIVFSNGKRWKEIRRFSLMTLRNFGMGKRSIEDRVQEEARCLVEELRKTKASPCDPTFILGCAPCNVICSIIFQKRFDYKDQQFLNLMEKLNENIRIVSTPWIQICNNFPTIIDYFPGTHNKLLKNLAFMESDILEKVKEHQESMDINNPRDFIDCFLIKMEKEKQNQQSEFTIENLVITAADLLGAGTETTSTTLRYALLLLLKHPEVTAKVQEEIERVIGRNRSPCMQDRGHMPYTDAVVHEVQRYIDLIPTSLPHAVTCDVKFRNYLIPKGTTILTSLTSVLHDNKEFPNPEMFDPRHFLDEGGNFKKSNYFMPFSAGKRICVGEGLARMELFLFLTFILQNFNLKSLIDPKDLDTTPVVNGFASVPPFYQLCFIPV
UniProt P11712, whole entry, looked up: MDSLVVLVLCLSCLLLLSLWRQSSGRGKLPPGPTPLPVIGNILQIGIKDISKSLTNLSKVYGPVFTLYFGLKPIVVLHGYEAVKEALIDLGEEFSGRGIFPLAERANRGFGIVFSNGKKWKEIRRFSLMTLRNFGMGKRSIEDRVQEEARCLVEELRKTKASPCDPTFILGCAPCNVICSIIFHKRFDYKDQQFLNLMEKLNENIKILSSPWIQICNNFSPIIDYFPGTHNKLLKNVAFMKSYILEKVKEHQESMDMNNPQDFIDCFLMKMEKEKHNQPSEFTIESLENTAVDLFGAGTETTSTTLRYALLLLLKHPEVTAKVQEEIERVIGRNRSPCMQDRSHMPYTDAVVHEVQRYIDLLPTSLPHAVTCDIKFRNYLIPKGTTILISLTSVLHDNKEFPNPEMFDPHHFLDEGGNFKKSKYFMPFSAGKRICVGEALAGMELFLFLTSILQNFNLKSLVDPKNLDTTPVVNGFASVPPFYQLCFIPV
UniProt P05177, whole entry, looked up: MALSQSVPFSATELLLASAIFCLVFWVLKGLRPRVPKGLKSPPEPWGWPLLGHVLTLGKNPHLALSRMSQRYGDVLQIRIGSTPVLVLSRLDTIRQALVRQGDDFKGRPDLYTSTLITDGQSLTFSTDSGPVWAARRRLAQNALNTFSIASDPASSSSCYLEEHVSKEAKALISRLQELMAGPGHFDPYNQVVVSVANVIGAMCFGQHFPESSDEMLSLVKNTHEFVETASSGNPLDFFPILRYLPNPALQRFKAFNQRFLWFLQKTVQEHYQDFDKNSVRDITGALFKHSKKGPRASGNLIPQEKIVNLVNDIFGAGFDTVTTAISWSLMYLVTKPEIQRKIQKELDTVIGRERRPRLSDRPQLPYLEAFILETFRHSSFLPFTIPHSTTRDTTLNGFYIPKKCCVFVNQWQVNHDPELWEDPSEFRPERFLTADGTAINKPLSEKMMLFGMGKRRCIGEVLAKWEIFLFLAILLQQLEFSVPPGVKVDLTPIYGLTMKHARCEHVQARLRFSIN
UniProt Q12809: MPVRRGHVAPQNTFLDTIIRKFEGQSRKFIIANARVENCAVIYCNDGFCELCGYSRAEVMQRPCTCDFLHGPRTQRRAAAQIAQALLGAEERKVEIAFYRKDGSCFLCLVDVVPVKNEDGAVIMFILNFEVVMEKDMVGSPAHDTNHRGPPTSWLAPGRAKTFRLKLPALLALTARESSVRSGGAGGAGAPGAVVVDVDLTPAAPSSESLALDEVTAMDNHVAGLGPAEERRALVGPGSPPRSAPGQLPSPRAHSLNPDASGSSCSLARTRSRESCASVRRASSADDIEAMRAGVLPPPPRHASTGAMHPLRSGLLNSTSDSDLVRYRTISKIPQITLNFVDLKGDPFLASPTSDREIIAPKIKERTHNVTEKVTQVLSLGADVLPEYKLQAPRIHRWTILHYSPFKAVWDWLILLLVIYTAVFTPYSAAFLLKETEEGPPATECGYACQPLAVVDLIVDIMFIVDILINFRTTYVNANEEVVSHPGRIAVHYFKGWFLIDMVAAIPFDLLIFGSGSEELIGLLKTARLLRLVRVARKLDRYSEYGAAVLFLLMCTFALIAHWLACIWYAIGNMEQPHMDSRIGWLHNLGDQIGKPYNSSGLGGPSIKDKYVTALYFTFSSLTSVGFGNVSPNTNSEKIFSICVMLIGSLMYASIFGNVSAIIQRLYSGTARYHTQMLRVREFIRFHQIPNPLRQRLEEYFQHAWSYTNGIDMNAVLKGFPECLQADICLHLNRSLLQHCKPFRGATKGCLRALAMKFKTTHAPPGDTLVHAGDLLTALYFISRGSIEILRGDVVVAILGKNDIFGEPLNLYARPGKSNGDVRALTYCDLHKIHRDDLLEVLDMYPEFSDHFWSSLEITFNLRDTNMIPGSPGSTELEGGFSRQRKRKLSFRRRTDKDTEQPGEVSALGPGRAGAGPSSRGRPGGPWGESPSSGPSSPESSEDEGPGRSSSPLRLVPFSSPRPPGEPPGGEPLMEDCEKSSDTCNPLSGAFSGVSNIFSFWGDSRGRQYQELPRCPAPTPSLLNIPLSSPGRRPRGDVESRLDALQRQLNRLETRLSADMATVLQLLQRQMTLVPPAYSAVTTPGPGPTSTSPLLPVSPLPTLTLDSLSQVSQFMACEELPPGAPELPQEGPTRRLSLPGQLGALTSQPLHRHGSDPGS

Test [1] in a line: qHTS assay to identify small molecule antagonists of the progesterone receptor (PR) signaling pathway - cell viability counter screen (AID 1346798). Further: nearly all actives have a fitted effect of over 50% in size. Further: potency means the concentration at half of the fitted maximal effect. The procedure, abridged: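 Following a 4 hr attachment, PR-UAS-bla HEK293T cells in charcoal-stripped FBS medium were exposed to compounds with R5020 for 16 hr; CellTiter-Glo was added and luminescence read after 30 min at room temperature.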
A general note: In qHTS, concentration-response curves come from the screen itself.

Test [2] can be described thus: qHTS assay to identify small molecule agonists of the progesterone receptor (PR) signaling pathway - cell viability counter screen (AID 1346799; calls by dose curve; further: nearly all actives have a fitted effect of over 45% in size; further: potency means the concentration at half of the fitted maximal effect). A digest of the protocol: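 Here, 3,000 PR-UAS-bla HEK293T cells per well were treated with compounds for 16 hr after a 6 hr preincubation at 37C and 5% CO2; cell viability is the CellTiter-Glo luminescence signal.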
Test [3] in a line: qHTS assay to identify small molecule agonists of the TGF-beta/Smad signaling pathway (AID 1346859; active means well fitted activation curve with a large enough effect in the signal ratio in the repeat runs, not every such curve was filed as active; the % refers to the signal ratio; further: on the % scale 0 is the no-effect control and ±100 the full control effect). The note with it: SBE-bla HEK293T, TGF-beta/Smad beta-lactamase reporter, 5 h; at 76.8 µM (top of the series) unless noted. The procedure, abridged: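 Each well held 4,000 SBE-bla HEK 293T cells incubated overnight before compound addition; 5 hr later the cleavable FRET substrate went on for 2 hr at room temperature, and fluorescence was read at two emissions.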

The target in test [4] is Thyrotropin-releasing hormone receptor (Homo sapiens) (UniProt P34981). As to the kind of experiment: qHTS assay to identify small molecule antagonists of the thyrotropin-releasing hormone receptor (TRHR) signaling pathway (AID 1346877; active means well fitted inhibition curve with a large enough effect in the repeat runs, not every such curve was filed as active; further: on the % scale 0 is the no-effect control and ±100 the full control effect).
Test [5] has the same target. As to the kind of experiment: qHTS assay to identify small molecule agonists of the thyrotropin-releasing hormone receptor (TRHR) signaling pathway (AID 1346891; calls by dose curve;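 further: HEK293 cells expressing TRHR with calcium dye readout; on the % scale 0 is the no-effect control and ±100 the full control effect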). The note with it: TRHR-HEK293 calcium fluorescence, agonist mode; at 57.6 µM (top of the series) unless noted.
A short description of test [6]: Caspase-3/7 induction in CHO-K1 cells by small molecules, qHTS assay (AID 1346980). Further: on the % scale 0 is the no-effect control and ±100 the full control effect; nearly all actives have a fitted effect of over 15% in size. To be noted: CHO-K1 caspase-3/7 induction, Caspase-Glo luminescence, 17 h; at 92.4 µM (top of the series) unless noted. The procedure, abridged:
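Wild-type cells were seeded at 1,500 per well and settled 5 hr at 37 C, 5% CO2, then exposed to DMSO-dissolved compounds for 17 hr. Caspase-Glo 3/7 reagent was added, and luminescence was read after 30min at room temperature.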

In test [7] the target is Nuclear receptor subfamily 1 group I member 2 (Homo sapiens) (UniProt O75469). Briefly: Human pregnane X receptor (PXR) small molecule agonists, qHTS assay (AID 1346982). Further: nearly all actives have a fitted effect of over 35% in size. Further: potency means the concentration at half of the fitted maximal effect. The procedure, abridged:
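PXR-Luc HepG2 cells (CYP3A4 promoter-driven luciferase) were seeded in medium with 5% charcoal-stripped FBS, left 5 hr at 37 C, then exposed to compounds in DMSO for 24 hr. Luminescence was read after ONE-Glo addition.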

Test [8] can be described thus: qHTS assay to identify small molecule agonists of the estrogen receptor alpha (ER-alpha) signaling pathway in the presence of an antagonist - cell viability counter screen (AID 1259386).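 Further: cells exposed to compounds for 22 h at 37 °C before the viability read; on the % scale 0 is the no-effect control and ±100 the full control effect; nearly all actives have a fitted effect of over 30% in size.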 A digest of the protocol: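 VM7Luc4E2 cells (endogenous full-length ER-alpha, 4×ERE-luciferase) were held 5 days in phenol red-free medium with 10% charcoal-stripped FBS, plated, then given 10.0nM ICI-182,780 and compounds at 15 concentrations for 22hr at 37C; viability read by CellTiter-Fluor fluorescence.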

In test [9] the target is Progesterone receptor (Homo sapiens) (UniProt P06401). As to the kind of experiment: qHTS assay to identify small molecule agonists of the progesterone receptor (PR) signaling pathway (AID 1346784; calls by dose curve; further: on the % scale 0 is the no-effect control and ±100 the full control effect; nearly all actives have a fitted effect of over 30% in size). A digest of the protocol:
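Compounds were tested for PR agonism in HEK 293T cells bearing a beta-lactamase gene under UAS control. Treatment lasted 16 hr at 37C; signal came from fluorescence of a FRET substrate.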

Test [10] shares this target. As to the kind of experiment: qHTS assay to identify small molecule antagonists of the progesterone receptor (PR) signaling pathway (AID 1346795; active means well fitted inhibition curve with a large enough effect in the signal ratio in the repeat runs, not every such curve was filed as active; the % refers to the signal ratio; further: on the % scale 0 is the no-effect control and ±100 the full control effect). The procedure, abridged: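 In HEK293T cells bearing the PR-UAS-bla reporter, compound effects on promegestone-driven (1 nM) beta-lactamase expression are assessed after 16 hr using a fluorescent FRET substrate incubated 2 hr at room temperature.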

Test [11] is described as follows: qHTS assay to identify small molecule agonists of the TGF-beta/Smad signaling pathway - cell viability counter screen (AID 1346829). Further: nearly all actives have a fitted effect of over 45% in size. Further: potency means the concentration at half of the fitted maximal effect. The procedure, abridged: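 Compound-treated SBE-bla HEK 293T cells (5 hr, 37 C) were assessed for viability with CellTiter-Glo in parallel with the reporter read.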
Test [12] is described as follows: Human pregnane X receptor (PXR) small molecule agonists, qHTS cell viability counter screen (AID 1346977). Further: nearly all actives have a fitted effect of over 50% in size. Further: potency means the concentration at half of the fitted maximal effect. A digest of the protocol: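 Tox21 qHTS format; PXR-Luc HepG2, 2,000/well, charcoal-stripped FBS 5%. Cpd exposure 24hr. Read: CellTiter-Fluor fluorescence, multiplexed with luciferase.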
Test [13] can be described thus: Caspase-3/7 induction in CHO-K1 cells by small molecules, qHTS cell viability counter screen (AID 1346979). Further: on the % scale 0 is the no-effect control and ±100 the full control effect; nearly all actives have a fitted effect of over 35% in size. The procedure, abridged: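 CellTiter-Fluor viability check, qHTS format: wild-type CHO-K1, 16hr compound treatment, 1hr reagent incubation, fluorescence read.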
The nature of test [14]: Caspase-3/7 induction in HepG2 cells by small molecules, qHTS cell viability counter screen (AID 1346981). Further: on the % scale 0 is the no-effect control and ±100 the full control effect; nearly all actives have a fitted effect of over 30% in size. The procedure, abridged:
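Wild-type HepG2 cells (2,000/well) were allowed to settle for 5 hr at 37 C, 5% CO2, then dosed with compounds in DMSO by pin transfer. After 16 hr at 37 C, CellTiter-Fluor was added and fluorescence read 1 hr later.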

For test [15], the target named is Acetylcholinesterase (Homo sapiens) (UniProt P22303). As to the kind of experiment: Acetylcholinesterase (AChE) small molecule antagonists: colormetric cell-based qHTS assay (AID 1347395; calls by dose curve; further: nearly all actives have a fitted effect of over 30% in size; further: potency means the concentration at half of the fitted maximal effect). The procedure, abridged: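 AChE inhibition read colorimetrically via DTNB–thiocholine in SH-SY5Y cells. Compound 30 min, substrate 90 min, both 37 C.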
Test [16] shares this target. As to the kind of experiment: Acetylcholinesterase (AChE) small molecule antagonists: fluorescence cell-based qHTS assay (AID 1347398; calls by dose curve; further: on the % scale 0 is the no-effect control and ±100 the full control effect; nearly all actives have a fitted effect of over 50% in size). To be noted: Potency: AChE activity. A digest of the protocol: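 Human SH-SY5Y cells were plated overnight at 37 C, exposed to compound for 30 min at 37 C, 5% CO2, then given acetylthiocholine plus Thiolite Green for 40 min at room temperature; thiocholine fluorescence (Ex/Em 490/520 nm) reports endogenous AChE activity.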

The target in test [17] is Cytochrome P450 2C19 (Homo sapiens) (UniProt P33261). As to the kind of experiment: Cytochrome P450 Family 2 Subfamily C Member 19 (CYP2C19) small molecule antagonists: luciferase reporter qHTS assay (AID 1671197). Further: nearly all actives have a fitted effect of over 65% in size. Further: potency means the concentration at half of the fitted maximal effect. A digest of the protocol:
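P450-Glo CYP2C19 screening system; proluciferin substrate; DMSO compound stocks; 10 min RT preincubation; NADPH regeneration, 1 h at 37C; luciferin detection reagent, 20 min RT; luminescence as RLU.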
On the technique in general: A reporter such as luciferase makes a cellular process visible.

For test [18], the target named is Cytochrome P450 2C9 (Homo sapiens) (UniProt P11712). Briefly: Cytochrome P450 Family 2 Subfamily C Member 9 (CYP2C9) small molecule antagonists: luciferase reporter qHTS assay (AID 1671198). Further: potency means the concentration at half of the fitted maximal effect; nearly all actives have a fitted effect of over 50% in size. The procedure, abridged:
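CYP2C9 activity was measured with a P450-Glo proluciferin substrate. Enzyme–substrate mix was held with compound for 10 min at room temperature, then NADPH regeneration solution was added for 1 h at 37C. Luciferin product was read as luminescence.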

Test [19] has as its target Cytochrome P450 1A2 (Homo sapiens) (UniProt P05177). Briefly: Cytochrome P450 Family 1 Subfamily A Member 2 (CYP1A2) small molecule antagonists: luciferase reporter qHTS assay (AID 1671199).
The target in test [20] is Voltage-gated inwardly rectifying potassium channel KCNH2 (Homo sapiens) (UniProt Q12809). As to the kind of experiment: Human Ether-a-go-go-Related Gene (hERG) channel small molecule antagonists: fluorescence cell-based qHTS assay (AID 1671200). Further: nearly all actives have a fitted effect of over 50% in size. Further: potency means the concentration at half of the fitted maximal effect. A digest of the protocol:
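Kinetic two-minute fluorescence traces, sampled at 1 s, were collected following thallium stimulus of U2OS cells (1000 per well) that had been cultured overnight at 37 C and loaded with FluxOR II.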

The entries are a selection whose mix differs from that of the whole data set. Results filed as inconclusive are left out. Where a structure was tested more than once in an assay, its records may differ in their call. Active and inactive are the calls of the source. Unless noted, the call rests on the fitted dose curve; in most records, active means well fitted curve in the direction sought with a large enough effect in the repeat runs; inconclusive means weak or mixed curves; inactive means no such curve, though single readings can be large; an effect the other way counts as inactive or inconclusive.

Regarding `N#CSc1ccc([N+](=O)[O-])cc1[N+](=O)[O-]`, the results for the Potency in test [1], in [2] and in [7] were active: 6.11 µM, active: 6.11 µM and active: 1.93 µM, respectively. The activation in test [3] was inactive: -0.0222%; in [5], inactive: 10.3%. The Potency entry in test [4] is “inactive”. Further, the caspase-3/7 activation in [6] is inactive: -6.7%.
For the compound `CCOP(=S)(CC)Sc1ccccc1` (stereo unspecified), the Potency result in test [8], in test [9], in test [10], in test [1], in [2] and in test [11] was “inactive” in each case. Further, the Potency result in [12], in test [13], in test [14], in test [7] and in test [16] was “inactive” each time. Also, the activation in [3] is inactive: -0.766%. In [6], the caspase-3/7 activation is inactive: -0.0111%. Moreover, the Potency is active: 63 µM in [15], active: 1.26 µM in [17] and active: 5.62 µM in test [18].
For the compound `Cc1cc([N+](=O)[O-])c(O)c([N+](=O)[O-])c1`, the Potency result in [1], in test [11], in [7], in [15], in [16] and in [17] was “inactive” each time. The Potency entry in [19] and in [20] was “inactive” in each case. Further, in [6], the caspase-3/7 activation was inactive: 1.36%. In addition, the Potency in [18] was active: 36 µM.
In the case of `CCCCCCCCCCCCCC[P+](CCCCCC)(CCCCCC)CCCCCC`, the Potency in test [11] was active: 48.8 µM; in test [7] it was active: 4.31 µM; in test [17] it was active: 20 µM; in test [18], active: 20 µM; in test [20], active: 0.615 µM. Besides, the Potency result in [15] and in [16] was “inactive” in each case.
Consider `O=[N+]([O-])c1ccc([N+](=O)[O-])cc1`, for which the Potency result in test [1], in test [11], in [4], in test [16] and in test [20] was “inactive” each time. The activation in [3] was inactive: -1.87%; in test [5], inactive: 1.28%. In addition, the Potency in test [12] was active: 48.6 µM; in test [17], active: 5.03 µM; in [18], active: 31.7 µM. In addition, the caspase-3/7 activation in [6] was inactive: 3.33%.
